Results as given in patent US20030211072A1, “Compositions with enhanced oral bioavailability” (priority 2000, published 2003).
Read-outs that look alike come from different tables or passages of the source.

Legend:
rat everted gut sacs [1] = test system: rat everted gut sacs
rat everted gut sacs [2] = test system: rat everted gut sacs; remark: listed apart in the source

## Xanthan gum
Rat everted gut sacs [1]
  Incd Ratio Serosal transfer: 2.8
Rat everted gut sacs [2]
  Incd Ratio Total uptake: 2.7
  Tissue uptake: 2.17 ± 0.23 ng/mg of protein

## Gellan gum
Rat everted gut sacs [1]
  Incd Ratio Total uptake: 0.9
  Serosal transfer: 0.009 ng/mg of protein
  Tissue uptake: 0.050 ng/mg of protein
  Total uptake: 0.059 ng/mg of protein
